Yeast mating assay B: variants of the scFv Ab-14

Reference: Li et al. 2023, doi:10.1038/s41467-023-39022-2. File: FLAb, binding data.

Antigen: PDVDLGDISGINAS, a 14-residue peptide of the SARS-CoV-2 spike HR2 region.

Ab-14 is the parent antibody, in scFv form: VH, then the linker GGGGSGGGGSGGGGS, then VL. The heavy chain is unchanged in all variants.
VH: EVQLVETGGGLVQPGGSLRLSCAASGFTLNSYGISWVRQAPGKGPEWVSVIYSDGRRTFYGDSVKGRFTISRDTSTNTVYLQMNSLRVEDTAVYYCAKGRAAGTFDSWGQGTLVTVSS
VL: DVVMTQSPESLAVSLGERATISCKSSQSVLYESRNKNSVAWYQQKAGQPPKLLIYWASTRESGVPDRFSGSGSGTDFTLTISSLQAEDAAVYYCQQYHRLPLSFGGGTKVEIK

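Designed CDR sequences, proposed from the first random library and measured here. Group labels follow the data file (Ctrl: baseline library sampled from a position-specific scoring matrix, with some repeated check sequences; GP: Gaussian process model; GPLM: also part of the Gaussian process libraries; HC: hill climbing; Gen: genetic algorithm; Gibbs: Gibbs sampling; a sequence that several methods proposed may carry one label only). In AlphaSeq, yeast of one mating type display the scFv and yeast of the other type display the target. Binding brings cells together so that they mate, and sequencing counts the barcode pairs among the diploids. The ratio of observed to expected reads was calibrated, replicate by replicate, on BCL2-family standards whose Kd was known from biolayer interferometry. There are six technical replicates.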

Positions count from residue 1 of the parent VL; S62F puts F in place of S.
This list holds designs with at most six substitutions.
Each Kd is an estimate from the mating assay, the geometric mean of the replicates in which the pair was seen; lower is stronger.
"nd" marks a missing value. The strain was present, yet no cells mated with the target were sequenced in any replicate, which points to weak or no binding.

Variant S62F+H98N [Ctrl] showed 110 nM (3 of 6 replicates; controls 0 of 18).
Variant S25F+W56E+S62M [GP_Gen] showed 4.8 nM (6 of 6 replicates; controls 0 of 18).
Variant S25C+S26P+S28G+W56G+T59V [GP_HC] showed 98 nM (5 of 6 replicates; controls 0 of 18).
Variant V29G+E32C+R34T+K36E [Ctrl] showed 820 nM (4 of 6 replicates; controls 2 of 18).
Variant S25L+S26E+Q27G+L30E+N35W+W56H [GP_Gibbs] showed 2.0 nM (6 of 6 replicates; controls 1 of 18).
Variant Q27P+V29T+K36T+W56R [Ctrl] showed 22 nM (5 of 6 replicates; controls 0 of 18).
Variant S25M+S26P+V29M+W56N+T59Q [GP_Gen] showed 620 pM (6 of 6 replicates; controls 3 of 18).
Variant V29Q+K36E+S38H+A57E [Ctrl] showed nd (0 of 6 replicates; controls 1 of 18).
Variant L30W+V39H+W56Q+Q96R [Ctrl] showed nd (0 of 6 replicates; controls 0 of 18).
Variant S25L+W56N+T59Q+S62V [GP_Gen] showed 2.9 nM (6 of 6 replicates; controls 2 of 18).
Variant S26Y+Q27P+V29F+W56E [GP_HC] showed 650 pM (6 of 6 replicates; controls 1 of 18).
Variant S25L+K36P+S38N+W56N [GP_Gen] showed 580 pM (6 of 6 replicates; controls 1 of 18).
Variant S25V+V29E+K36A+S38N+W56N+S62N [GP_Gibbs] showed 560 pM (6 of 6 replicates; controls 2 of 18).
Variant Q27W+Y31Q+W56D+E61S [GP_HC] showed 1.6 nM (6 of 6 replicates; controls 0 of 18).
Variant S25I+V29M+W56N+E61M [GP_Gen] showed 1.1 nM (6 of 6 replicates; controls 1 of 18).
Variant Q27S+V29T [Ctrl] showed 6.3 nM (6 of 6 replicates; controls 0 of 18).
Variant P101M [Ctrl] showed nd (0 of 6 replicates; controls 0 of 18).
Variant S25L+Q27M+V29M+W56D [GP_Gen] showed 1.1 nM (6 of 6 replicates; controls 0 of 18).
Variant S25Q+Q27K+Y31F+W56N [GP_HC] showed 680 pM (6 of 6 replicates; controls 1 of 18).
Variant S26M+S33D+R99K [Ctrl] showed nd (0 of 6 replicates; controls 0 of 18).
Variant V29E+Y31E [Ctrl] showed 80 nM (3 of 6 replicates; controls 2 of 18).
Variant S25Y+S26Y+Q27P+V29Y+L30E+W56Q [GP_HC] showed 1.5 nM (6 of 6 replicates; controls 1 of 18).
Variant R34V+N35W+W56H+S62F [Ctrl] showed 20 nM (6 of 6 replicates; controls 0 of 18).
Variant Q27P+Y31N+N37H+V39C+W56S+S103D [Ctrl] showed nd (0 of 6 replicates; controls 0 of 18).
Variant S25V+E32Q+R34N+S103F [Ctrl] showed 5.0 nM (6 of 6 replicates; controls 0 of 18).
Variant S25L+R34Q+S38Q+W56G+A57S+E61M [GP_Gibbs] showed 890 pM (6 of 6 replicates; controls 3 of 18).
Variant S25L+S26Q+L30P+W56N+T59Q [GP_Gen] showed nd (0 of 6 replicates; controls 0 of 18).
Variant S25L+Y31M+W56E+E61L [GP_Gen] showed 430 pM (6 of 6 replicates; controls 0 of 18).
Variant L30W+W56E [GP_Gen] showed 5.1 nM (6 of 6 replicates; controls 0 of 18).
Variant S26P+S38N+W56H+S62D+H98A [GP_HC] showed 310 pM (6 of 6 replicates; controls 0 of 18).
Variant S25L+S26R+V29T+T59Q+E61L [GP_HC] showed 6.8 nM (6 of 6 replicates; controls 0 of 18).
Variant S25L+S26M+W56H+S62D [GP_HC] showed 1.7 nM (6 of 6 replicates; controls 0 of 18).
Variant S25V+W56D+S103M [GPLM_HC] showed 1.1 nM (6 of 6 replicates; controls 1 of 18).
Variant S25F+N35T+S38N+W56N [GP_HC] showed 1.0 nM (6 of 6 replicates; controls 2 of 18).
Variant S26E+Y31N+W56G+H98S [Ctrl] showed 2.5 nM (6 of 6 replicates; controls 0 of 18).
Variant S25L+S26P+W56E+S62D [GP_Gen] showed 320 pM (6 of 6 replicates; controls 1 of 18).
Variant S28V+V29D+W56G [GP_HC] showed 940 pM (6 of 6 replicates; controls 0 of 18).
Variant S25V+S26R+V29T+W56A [GP_HC] showed 890 pM (6 of 6 replicates; controls 0 of 18).
Variant L30P+Y31R [Ctrl] showed nd (0 of 6 replicates; controls 0 of 18).
Variant S26Q+V29Y+L30H+W56G [GP_HC] showed 22 nM (6 of 6 replicates; controls 0 of 18).
Variant Y31D+R34Q [Ctrl] showed 15 nM (6 of 6 replicates; controls 1 of 18).
Variant S25L+N35Q+W56E+T59Q [GP_Gen] showed 880 pM (6 of 6 replicates; controls 3 of 18).
Variant S26V+S62L [Ctrl] showed nd (0 of 6 replicates; controls 1 of 18).
Variant R34M+W56Q [GPLM_HC] showed 9.9 nM (6 of 6 replicates; controls 0 of 18).
Variant K24H+S25V+Q27P+S38N+W56N [GP_HC] showed 370 pM (6 of 6 replicates; controls 1 of 18).
Variant Y31D+E32P+L100A [Ctrl] showed 8.8 nM (1 of 6 replicates; controls 0 of 18).
Variant S26L+Q27G+R34N+W56H+S62D [GP_HC] showed 1.8 nM (6 of 6 replicates; controls 1 of 18).
Variant S25R+Q96S [Ctrl] showed 180 nM (2 of 6 replicates; controls 0 of 18).
Variant V29D+W56G [GPLM_HC] showed 710 pM (6 of 6 replicates; controls 0 of 18).
Variant S25F+N35T+K36Q+S38G+W56N [GP_HC] showed 570 pM (6 of 6 replicates; controls 2 of 18).
Variant S25M+S26Y+W56N [GP_Gen] showed 440 pM (6 of 6 replicates; controls 1 of 18).

A sequence measured in both rounds can read differently, since the two assays cover different ranges.
The parent sequence was in this pool as ten entries: three were never detected, three once, and four in most replicates, with averages from 2.2 nM to 240 nM.
The authors' rule: three or more of the six replicates give a measured affinity, fewer mean a poor binder.
Nonspecific signal, from three strains lacking the peptide, appeared in 4% of pairings of all light chain designs, centred on 430 nM (5% of these signals below 38 nM); values are not corrected for it. Also given: how often the same scFv was detected with the empty control strains.